Our source for the Ratio IC50 values is ChEMBL document CHEMBL1144680, “Structure-guided design of aminopyrimidine amides as potent, selective inhibitors of lymphocyte specific kinase: synthesis, structure-activity relationships, and inhibition of in vivo T cell activation” (J Med Chem, 2008).

The test is described as follows: Selectivity for Lck over KDR.

The structures appear in SMILES notation.

Regarding `Cc1ccc(NC(=O)c2ccc3c(c2)OC(F)(F)O3)cc1C(=O)Nc1cnc(Nc2ccc(N3CCN(C)CC3)cc2)nc1`, the Ratio IC50 is over 200.
